# Assay results taken from US20230302083A1, “HIGHLY-NETWORKED C[…] COMPOSITION” (priority 2020, published 2023).
# System: HLA class I alleles
# Type: cell-based, human
row,Sequence,50% Experimental Binder
1,ILPVSMTK [A3 COVID 4],YES
2,TEILPVSM [B40 COVID 1],YES
